The assay concerns THP-1 cell adhesion to CXCL8-treated HMEC-1. It counts as cell-based, human. The following applies: at a high peptide concentration; 25 ng/ml CXCL8, THP-1 on HMEC-1, mean from three independent experiments. The procedure:
Human micro-vascular endothelial cell-1 (HMEC-1, from American Type Culture Collection Manassas, USA) was maintained in MCDB 131 medium (Sigma, USA) with L-glutamine and fetal bovine serum (Sigma, USA) to a final concentration of 15%. The medium was supplemented with 500 units/ml penicillin (Biowest, USA), 500 μg/ml streptomycin (Biowest, USA), 10 ng/ml Epidermal Growth Factor (ProSpec, USA) and 1 µg/ml hydrocortisone (Sigma, USA). The THP-1 cells were maintained in the RPMI-1640 medium (Invitrogen, USA) with 10% FBS. For the assay of THP-1 cell adhesion to HMEC-1 monolayers, confluent HMEC-1 cell monolayers cultured on 24-well plates were pretreated with peptides for one hour and activated with 25 ng/ml LPS (Sigma, USA) or full length CXCL8 (ProSpec, USA) for 18 hours. THP-1 monocytes were suspended in RPMI 1640 and prelabeled with 5 mM Calcein-AM (Invitrogen, USA) for 30 minutes. Before the THP-1 cells were added to HMEC-1, the monolayers were washed twice to remove LPS or CXCL8. Fluorescence labeled monocytes (3 × 10^5 cells/well) were then added to HMEC-1 and incubated for 30 minutes at 37 °C. […] The images of adhered THP-1 cells were photographed (five images per well) under fluorescent microscopy and the number of attached monocytes was counted with the software AlphaImager 2200 (Alpha Innotech, USA).

For `CC[C@H](C)[C@H](NC(=O)[C@H](CS)NC(=O)[C@H](CCC(N)=O)NC(=O)[C@H](CS)NC(=O)[C@@H](N)CCCNC(=N)N)C(=O)N[C@@H](CCCCN)C(=O)N[C@H](C(=O)N[C@@H](Cc1ccc(O)cc1)C(=O)N[C@@H](CO)C(=O)N[C@@H](CCCCN)C(=O)N1CCC[C@H]1C(=O)N[C@@H](Cc1ccccc1)C(=O)N[C@@H](Cc1c[nH]cn1)C(=O)N1CCC[C@H]1C(=O)N[C@@H](CCCCN)C(=O)N[C@@H](Cc1ccccc1)C(=O)O)[C@@H](C)O` [p_wt16], the monocyte binding is reported as 85%. On to `CC[C@H](C)[C@H](NC(=O)[C@H](Cc1ccccc1)NC(=O)[C@H](CCCCN)NC(=O)[C@@H]1CCCN1C(=O)[C@H](Cc1c[nH]cn1)NC(=O)[C@H](Cc1ccccc1)NC(=O)[C@@H]1CCCN1C(=O)[C@H](CCCCN)NC(=O)[C@H](CO)NC(=O)[C@H](Cc1ccc(O)cc1)NC(=O)[C@@H](NC(=O)[C@H](CCCCN)NC(=O)[C@@H](NC(=O)[C@H](CS)NC(=O)[C@H](CCC(N)=O)NC(=O)[C@H](CS)NC(=O)[C@@H](N)CCCNC(=N)N)[C@@H](C)CC)[C@@H](C)O)C(=O)N[C@@H](CCCCN)C(=O)O` [p_wt18], for which the monocyte binding is 95%.

Source of the values: PMC4686899, “Peptides derived from CXCL8 based on in silico analysis inhibit CXCL8 interactions with its receptor CXCR1” (Scientific Reports, 2015).
